Experimental data from article PMC7534336, “New classes of potent heparanase inhibitors from ligand-based virtual screening” (Journal of Enzyme Inhibition and Medicinal Chemistry, 2020).

Protein sequences, listed by entry. Tags and fused reporters are not part of them. Chains listed by the source or under a name are the forms on record and can include a tag or linker.
UniProt Q9Y251, with tags, fused parts or gaps limits assumed: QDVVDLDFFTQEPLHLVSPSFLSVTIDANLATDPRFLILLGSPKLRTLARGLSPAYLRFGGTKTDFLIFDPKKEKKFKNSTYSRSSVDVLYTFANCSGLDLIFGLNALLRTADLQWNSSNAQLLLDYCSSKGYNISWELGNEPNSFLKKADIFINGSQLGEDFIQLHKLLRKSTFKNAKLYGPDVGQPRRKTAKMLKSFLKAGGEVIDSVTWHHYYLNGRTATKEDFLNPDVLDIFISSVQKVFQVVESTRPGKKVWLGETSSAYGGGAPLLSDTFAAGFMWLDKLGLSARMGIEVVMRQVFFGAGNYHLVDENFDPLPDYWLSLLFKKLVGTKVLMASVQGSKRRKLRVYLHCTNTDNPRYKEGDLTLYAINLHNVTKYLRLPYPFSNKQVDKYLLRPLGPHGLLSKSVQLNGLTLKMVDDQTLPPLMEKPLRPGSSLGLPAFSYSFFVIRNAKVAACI

Molecular target: human GS3 heparanase (Homo sapiens, UniProt Q9Y251)
Assay: fondaparinux assay of heparanase enzymatic activity (WST-1 colorimetric)
Format: biochemical
Details: read-out: IC50 (µM) ± SD, heparanase inhibitory activity; fondaparinux assay on human GS3 heparanase; mean of triplicates; tested form: Na salt

IC50: 1.66 µM
SMILES: O=C(Nc1ccc2c(O)c(N=Nc3ccccc3)c(S(=O)(=O)O)cc2c1)Nc1ccc2c(O)c(N=Nc3ccc(C(=O)O)cc3)c(S(=O)(=O)O)cc2c1
